Ab-91 heavy chain CDR variants: yeast mating affinities

Source: Engelhart et al. 2022 (doi:10.1038/s41597-022-01779-4), MIT Lincoln Laboratory and A-Alpha Bio; data file from the FLAb repository.

All variants were tested on one target, the spike HR2 peptide PDVDLGDISGINAS (SARS-CoV-2).

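The starting antibody came from a phage panning campaign against this peptide. Library AAYL51 holds single substitutions and randomly drawn double and triple substitutions in the CDRs. Affinity was read by AlphaSeq, a pooled yeast mating assay with surface-displayed partners. Mating (16 h, 30 °C) was followed by selection of diploids and sequencing of their barcodes. Each replicate has its own calibration line, from reference interactions of the BCL2 family. Each pool was mated in three replicate cultures.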

The variants keep the light chain, the linker and the frameworks of Ab-91 (scFv order VL, three GGGGS repeats, VH).
VL: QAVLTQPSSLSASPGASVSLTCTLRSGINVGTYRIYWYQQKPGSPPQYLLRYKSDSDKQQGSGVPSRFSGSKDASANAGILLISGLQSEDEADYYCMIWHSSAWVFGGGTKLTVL
VH: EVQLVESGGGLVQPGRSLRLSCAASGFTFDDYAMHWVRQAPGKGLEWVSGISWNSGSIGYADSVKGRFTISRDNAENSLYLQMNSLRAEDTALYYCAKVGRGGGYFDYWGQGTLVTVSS

Sequences are complete VH domains.
The read-out is the apparent dissociation constant on a log10 scale (nM): the lower, the stronger.
Replicates are averaged; those with no signal do not enter the mean.
An entry "no signal" has no value in the source: the pair was not observed among the diploids in any replicate. This suggests poor binding but is not conclusive.
Three control strains display no target. For library AAYL51, 21% of the pairings with them gave a signal, with a median of 4.54 and one signal in twenty below 3.26, so weak values seen in few replicates may be background. The control count says in how many pairings with the empty strains this scFv gave a signal.

| VH | mean, log10 nM | detected | control signals |
|---|---|---|---|
| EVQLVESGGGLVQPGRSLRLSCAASGFTFDDYAMHWVRQAPGKGLEWVSGISFGSGSIGYADSVKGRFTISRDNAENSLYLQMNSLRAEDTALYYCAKVGRGYGYFDYWGQGTLVTVSS | 5.23 | 2/3 | 3/9 |
| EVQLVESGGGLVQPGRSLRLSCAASGFTFDDYAMHWVRQAPGKGLEWVSGISWNSWSGGYADSVKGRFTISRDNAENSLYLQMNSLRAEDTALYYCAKVGRGGFYFDYWGQGTLVTVSS | 4.36 | 1/3 | 4/9 |
| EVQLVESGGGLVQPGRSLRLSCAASNFTFDDYAMHWVRQAPGKGLEWVSQISWNSGSIGYADSVKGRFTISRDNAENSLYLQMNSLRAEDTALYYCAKVGRGGGNFDYWGQGTLVTVSS | 4.27 | 1/3 | 2/9 |
| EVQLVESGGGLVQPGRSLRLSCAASGFTFDDYAMHWVRQAPGKGLEWVSGIPWNSGSIGYIDSVEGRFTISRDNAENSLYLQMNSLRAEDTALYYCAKVGRGGGYFDYWGQGTLVTVSS | no signal | 0/3 | 0/9 |
| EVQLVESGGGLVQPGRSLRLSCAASFFSFDDYAMHWVRQAPGKGLEWVSGISWNSGSIGYADSVKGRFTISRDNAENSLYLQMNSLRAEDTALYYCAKVGRQGGYFDYWGQGTLVTVSS | no signal | 0/3 | 0/9 |
| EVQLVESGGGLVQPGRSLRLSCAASGFTFDDYDMHWVRQAPGKGLEWVSGISWNSGSIGYADYVKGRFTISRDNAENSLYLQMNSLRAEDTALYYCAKVGVGGGYFDYWGQGTLVTVSS | 4.77 | 2/3 | 6/9 |
| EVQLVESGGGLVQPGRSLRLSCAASGTTFDDYAMHWVRQAPGKGLEWVSGISWNSGSIGYADSVKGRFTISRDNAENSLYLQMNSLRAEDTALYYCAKVGRGGGHFDYWGQGTLVTVSS | 3.33 | 2/3 | 3/9 |
| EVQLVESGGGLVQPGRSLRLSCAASGFTFRDYAMEWVRQAPGKGLEWVSGISWNSGSIGYADSVKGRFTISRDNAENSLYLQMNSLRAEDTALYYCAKVGRGEGYFDYWGQGTLVTVSS | 4.73 | 1/3 | 0/9 |
| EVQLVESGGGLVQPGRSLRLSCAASFFTFDDYAMHWVRQAPGKGLEWVSGISWNSGSIGYADSEKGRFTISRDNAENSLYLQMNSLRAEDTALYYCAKVGRGLGYFDYWGQGTLVTVSS | no signal | 0/3 | 0/9 |
| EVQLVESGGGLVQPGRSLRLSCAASGFTWDDLAMHWVRQAPGKGLEWVSGISWNSKSIGYADSVKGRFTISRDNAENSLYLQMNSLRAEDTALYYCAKVGRGGGYFDYWGQGTLVTVSS | no signal | 0/3 | 0/9 |
| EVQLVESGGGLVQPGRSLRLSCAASGFTFDWYAMHWVRQAPGKGLEWVSGISWNHGSIGYADSVKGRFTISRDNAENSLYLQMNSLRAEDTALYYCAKVGRGGGWFDYWGQGTLVTVSS | 5.45 | 2/3 | 2/9 |
| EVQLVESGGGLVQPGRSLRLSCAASGFTFDDYAMHWVRQAPGKGLEWVSGVSWNSGSIGYALSVKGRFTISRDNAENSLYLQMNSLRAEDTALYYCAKVGRWGGYFDYWGQGTLVTVSS | no signal | 0/3 | 0/9 |
| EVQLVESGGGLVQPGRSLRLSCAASGFTFDDYAMHWVRQAPGKGLEWVSGISWNSGSIGPADSVKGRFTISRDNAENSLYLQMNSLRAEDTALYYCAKPERGGGYFDYWGQGTLVTVSS | no signal | 0/3 | 0/9 |
| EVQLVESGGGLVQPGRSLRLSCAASGFTFDDYAMHWVRQAPGKGLEWVSGIHWNSGSIGYADEVKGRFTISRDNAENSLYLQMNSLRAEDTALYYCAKGGRGGGYFDYWGQGTLVTVSS | 4.62 | 2/3 | 1/9 |
| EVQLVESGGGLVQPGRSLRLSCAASGFTFDDYAMHWVRQAPGKGLEWVSGISWRSNHIGYADSVKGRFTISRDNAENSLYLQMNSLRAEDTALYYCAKVGRGGGYFDYWGQGTLVTVSS | 5.54 | 2/3 | 4/9 |
| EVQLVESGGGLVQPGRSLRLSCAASGFTFDDYQMHWVRQAPGKGLEWVSGISWNGGSIGYADSVKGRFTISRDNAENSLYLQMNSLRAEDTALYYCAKVGRGGGYFSYWGQGTLVTVSS | 4.63 | 1/3 | 2/9 |
| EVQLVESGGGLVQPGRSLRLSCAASGFRFDDYRMHWVRQAPGKGLEWVSGISWNSGPIGYADSVKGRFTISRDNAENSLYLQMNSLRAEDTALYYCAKVGRGGGYFDYWGQGTLVTVSS | 4.29 | 2/3 | 2/9 |
| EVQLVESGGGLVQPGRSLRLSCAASGFTFDCYAMHWVRQAPGKGLEWVSGISWNSGSIGTADVVKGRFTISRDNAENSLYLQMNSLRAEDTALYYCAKVGRGGGYFDYWGQGTLVTVSS | 4.42 | 1/3 | 1/9 |
| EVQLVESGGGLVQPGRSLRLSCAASLFTFDDYAMEWVRQAPGKGLEWVSGISWNSGSIGYADSVKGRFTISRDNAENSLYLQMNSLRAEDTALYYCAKVGRGGGSFDYWGQGTLVTVSS | no signal | 0/3 | 3/9 |
| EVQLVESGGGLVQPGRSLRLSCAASGFTFDVYAMHWVRQAPGKGLEWVSGISWNSGTIMYADSVKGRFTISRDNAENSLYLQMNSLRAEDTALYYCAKVGRGGGYFDYWGQGTLVTVSS | 5.33 | 2/3 | 7/9 |
| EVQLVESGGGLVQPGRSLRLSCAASGMTFDDYEMHWVRQAPGKGLEWVSGSSWNSGSIGYADSVKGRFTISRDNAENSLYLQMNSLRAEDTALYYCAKVGRGGGYFDYWGQGTLVTVSS | 5.66 | 2/3 | 3/9 |
| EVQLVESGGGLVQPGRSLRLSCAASWFTFSDYAMHWVRQAPGKGLEWVSGISWNSGSIGYADSVLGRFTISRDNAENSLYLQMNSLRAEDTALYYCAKVGRGGGYFDYWGQGTLVTVSS | 4.69 | 1/3 | 3/9 |

Parent in this assay: reference entry 1.86, copy in this library 0.88.